Measurements from US7247734B2 (Vernalis (Cambridge) Limited, priority 2001, dated 2007).

Chains of the proteins cited; added tags and fusions are not shown.
UniProt P02829, whole entry, looked up: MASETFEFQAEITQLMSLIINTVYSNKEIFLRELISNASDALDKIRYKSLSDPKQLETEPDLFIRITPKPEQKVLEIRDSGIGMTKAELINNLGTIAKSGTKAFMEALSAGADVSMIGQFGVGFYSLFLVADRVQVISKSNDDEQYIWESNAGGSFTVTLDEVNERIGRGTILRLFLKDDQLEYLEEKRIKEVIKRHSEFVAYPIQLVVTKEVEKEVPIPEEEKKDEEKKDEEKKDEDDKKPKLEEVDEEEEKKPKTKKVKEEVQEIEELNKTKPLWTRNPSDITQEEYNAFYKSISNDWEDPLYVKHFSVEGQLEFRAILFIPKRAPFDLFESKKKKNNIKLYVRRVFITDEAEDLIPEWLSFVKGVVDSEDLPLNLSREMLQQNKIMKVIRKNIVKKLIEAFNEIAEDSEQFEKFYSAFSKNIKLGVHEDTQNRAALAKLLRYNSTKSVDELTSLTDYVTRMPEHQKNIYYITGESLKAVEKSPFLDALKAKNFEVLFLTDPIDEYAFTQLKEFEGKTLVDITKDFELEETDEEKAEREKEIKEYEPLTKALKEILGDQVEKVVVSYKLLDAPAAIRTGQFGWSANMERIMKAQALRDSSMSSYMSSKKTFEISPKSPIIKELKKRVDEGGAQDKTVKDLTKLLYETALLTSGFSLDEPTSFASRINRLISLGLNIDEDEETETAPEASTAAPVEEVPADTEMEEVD

Target: T1, yeast HSP90 (Saccharomyces cerevisiae, UniProt P02829)
T1 construct: made in house; host or cells: E. coli
Test: Malachite green HSP90 ATPase assay
Type: biochemical
Conditions: activity class
From the text: Two methods have been developed to measure the intrinsic ATPase activity of HSP90, using yeast HSP90 as a model system. The first method utilises a regenerating coupled enzyme assay. The second assay, based on the use of malachite green for the measurement of inorganic phosphate, was designed for high throughput screening (HTS) to identify novel HSP90 inhibitor drug candidates.
Colorimetric assays for the determination of phosphate, based on the formation of a phosphomolybdate complex, can be carried out in a few steps with inexpensive reagents and are well suited to the automation required for high throughput screening (see, e.g., Cogan et al., 1999). Enzymes that release inorganic phosphate are assayed using the reaction of the cationic dye, malachite green, with the a complex formed by a reaction of the inorganic phosphate with molybdate to generate a blue-green colour with an absorbance maximum at 610 nm (see, e.g., Baykov et al., 1988; Harder et al., 1994; Maehama et al., 2000). The method has been used in both high throughput (see, e.g., Rumsfeld et al., 2000) and ultra-high throughput screening formats (see, e.g., Layery et al., 2001) for a variety of non-HSP90 ATPases. However, this method is complicated by the non-enzymatic hydrolysis of ATP in the presence of acidic malachite green reagent, causing an increase in colour (see, e.g., Chan et al., 1986; Henkel et al., 1988). […]

IC50: < 10 µM
SMILES: CCc1cc(-c2n[nH]c(C(=O)O)c2-c2ccc3c(c2)OCO3)c(O)cc1O [Example 89]
